# Laboratory results as given in US20200297862A1, “METHODS OF USING BISPECIFIC ANTIGEN-BINDING CONSTRUCTS TARGETING HER2” (Zymeworks Inc., priority 2016, published 2020).
# Where two headings read alike, the source gives them in different places.
# Assays:
# JIMT-1 cells [1] = experiment: Binding to HER2+ cells by flow cytometry (FACS): Bmax and apparent KD; design: species or system human
# Experimental: (§1) The following experiment was performed to measure the ability of an exemplary biparatopic anti-HER2 antibody to bind to cells expressing varying levels of HER2 in comparison to controls. […] The ability of the biparatopic anti-HER2 antibodies to bind to the HER2 expressing (HER2+) cells was determined as described below, with specific measurement of Bmax and apparent KD (equilibrium dissociation constant).
# (§2) Binding of the test antibodies to the surface of HER2+ cells was determined by flow cytometry. Cells were washed with PBS and resuspended in DMEM at 1×10^5 cells/100 μl. 100 μl cell suspension was added into each microcentrifuge tube, followed by 10 μl/tube of the antibody variants. The tubes were incubated for 2 hr 4° C. on a rotator. The microcentrifuge tubes were centrifuged for 2 min 2000 RPM at room temperature and the cell pellets washed with 500 μl media. Each cell pellet was resuspended 100 μl of fluorochrome-labelled secondary antibody diluted in media to 2 μg/sample. The samples were then incubated for 1 hr at 4° C. on a rotator. After incubation, the cells were centrifuged for 2 min at 2000 rpm and washed in media. The cells were resuspended in 500 μl media, filtered in tube containing 5 μl propidium iodide (PI) and analyzed on a BD LSR II flow cytometer according to the manufacturer's instructions. The KD of exemplary biparatopic anti-HER2 heterodimer antibody and control antibodies were assessed by FACS with data analysis and curve fitting performed in GraphPad Prism.
# MCF7 cells [2] = experiment: as above; design: species or system human; settings: for Kd: apparent KD
# Experimental: as §1, §2
# WI-38 cells = experiment: Binding to basal HER2 cells by flow cytometry (FACS); design: species or system human; settings: Table 10, FIG. 6G
# Experimental: as §2
# SKBr3 cells = experiment: Growth inhibition of HER2+ cells (cell viability); assay type: cell-based, human; settings: 300 nM antibody, 3 days; Table 11B
# JIMT-1 cells [3] = experiment: Growth inhibition of HER2+ cells (cell viability); assay type: cell-based, human; settings: 300 nM antibody, 3 days; Table 11B
# JIMT-1 cells [4] = experiment: Cellular staining and location by confocal microscopy at 1, 3 and 16 h; assay type: cell-based, human; settings: 200 nM antibody, 1 h, 3 h
# Experimental: This experiment was performed to analyze internalization of the exemplary anti-HER2 biparatopic antibody in HER2+ JIMT-1 cells at different time points and as an orthogonal method to that presented in Example 9 to analyze whole cell loading and internalization.
# Cells were gently washed two times with warmed sterile PBS ([…]/well). Cells were fixed with 250 ml of 10% formalin/PBS solution for 10 min at RT. The fixed cells were washed three times with PBS (500 μl/well), permeabilized with 250 μl/well of PBS containing 0.2% Triton X-100 for 5 min, and washed three times with 500 μl/well PBS. Cells were blocked with 500 μl/well of PBS+5% goat serum for 1 h at RT. Blocking buffer was removed, and 300 μl/well secondary antibody (Alexa Fluor 488-conjugated AffiniPure Fab Fragment Goat anti-Human IgG (H+L); Jackson ImmunoResearch Laboritories, Inc.; 109-547-003) was incubated for 1 h at RT. Cells were washed three times with 500 μl/well of PBS and the coverslips containing fixed cells were then mounted on a slide using Prolong gold anti-fade with DAPI (Life Technologies; # P36931). 60× single images were acquired using Olympus FV1000 Confocal microscope.
# SKOV3 xenograft [5] = experiment: Human ovarian cancer cell xenograft model, antibody (Example 16); assay type: in vivo, athymic nude mice
# JIMT-1 cells [6] = experiment: ADCC, NK effector cells E:T 5:1; assay type: cell-based, human
# Experimental: Target cells were pre-incubated with test antibodies (10-fold descending concentrations from 45 μg/ml) for 30 min followed by adding effector cells with effector/target cell ratio of 5:1 and the incubation continued for 6 hours at 37° C.+5% CO2. Samples were tested with 8 concentrations, 10 fold descending from 45 μg/ml. LDH release was measured using LDH assay kit.
# Dose-response studies were performed with various concentrations of the samples with a effector/target (E/T) ratios of 5:1. 3:1 and 1:1. Half maximal effective concentration (EC50) values were analyzed with the sigmoidal dose-response non-linear regression fit using GraphPad prism.
# The ADCC experiments were performed as described in Example 11 with the exception that NK effector cell to target cell ratio remained constant at 5:1.
# (§3) The ADCC experiment was conducted as described in Example 11 with E/T: 5:1 with NK-92 effector cells. FIG. 43A and Table 43 show the ADCC results in HER2 2+ JIMT-1 breast tumor cells.
# BT-474 cells = experiment: Growth inhibition in the presence or absence of exogenous ligands (EGF, HRG); assay type: cell-based, human
# SKOV3 xenograft [7] = experiment: Trastuzumab sensitive ovarian cancer xenograft, antibodies (Example 34); assay type: in vivo, athymic nude mice
# HCT-116 cells = experiment: ADCC, PBMC effector cells E/T 30:1; assay type: cell-based, human; settings: PBMC E/T 30:1, FIG. 40C
# Experimental: (§4) The following experiment was conducted to determine the ability of anti-HER2 biparatopic antibodies to mediate ADCC of tumor cells that express HER2 at the 2+, 1+ and/or 0/1+ levels and that coexpress EGFR and/or HER3 at the 2+ or 1+ level.
# (§5) The ADCC experiment was conducted as described in Example 11 and Example 25 with E/T: 5:1 with NK-92 effector cells (FIG. 39), and as described in Example 26 with E/T 30:1 with PBMC effector cells.
# NCI-N87 cells = experiment: ADCC, PBMC effector cells E/T 30:1; assay type: cell-based, human; settings: PBMC E/T 30:1, FIG. 40B
# Experimental: as §4, §5
# MCF7 cells [8] = experiment: ADCC, NK-92 effector cells E/T 5:1; assay type: cell-based, human; settings: NK-92 E/T 5:1, Table 44
# Experimental: as §3
substance,measurement,setting,value
"v5019: biparatopic anti-HER2 antibody, Fab-scFv: pertuzumab Fab (ECD2) chain A, trastuzumab scFv (ECD4) chain B, heterodimeric Fc",Bmax,"JIMT-1 cells [1]; Table 6, FIG. 6B",7203
same,Bmax,JIMT-1 cells [1]; Table 36,4690
same,Kd,"JIMT-1 cells [1]; apparent KD, Table 6, FIG. 6B",4.32 nM
same,Bmax,"MCF7 cells [2]; Table 7, FIG. 6C",872
same,Bmax,"MCF7 cells [2]; Table 8, FIG. 6F",968
same,Kd,"MCF7 cells [2]; Table 7, FIG. 6C",1.51 nM
same,Kd,MCF7 cells [2]; Table 37,6.3 nM
same,Bmax,WI-38 cells,380
same,Kd,WI-38 cells; apparent KD,7 nM
same,% Survival SKBr3 HER2 3+,SKBr3 cells,59%
same,% Survival JIMT-1 HER2 2+,JIMT-1 cells [3],106%
same,cellular staining and location,JIMT-1 cells [4],internalized into JIMT-1 cells at 3 h
same,% TGI,SKOV3 xenograft [5]; Day 22,63%
same,Responders (TV < 50% of control),SKOV3 xenograft [5]; Day 22,11/15
same,Mean TV % change from Baseline,"SKOV3 xenograft [5]; Day 22, n = 15",+217%
same,Mean TV (mm3),"SKOV3 xenograft [5]; Day 22, n = 15",697 mm3
same,Median Survival,"SKOV3 xenograft [5]; mouse, in vivo",61 days
same,JIMT-1 HER2 2+ Max % Target Cell Lysis,"JIMT-1 cells [6]; NK E:T 5:1, Table 23",60%
same,EC50,"JIMT-1 cells [6]; NK E:T 5:1, Table 23, read-out: JIMT-1 HER2 2+ EC50",0.001 nM
same,% Max Cell Lysis,"JIMT-1 cells [6]; NK-92 E/T 5:1, Table 43",47%
same,EC50,"JIMT-1 cells [6]; NK-92 E/T 5:1, Table 43, read-out: EC50",~0.16 nM
same,growth inhibition in the absence of growth stimulatory ligand,BT-474 cells,70%
same,growth inhibition in the presence of HRG,BT-474 cells; 10 ng/mL HRG,~10%
same,% Survival +HRG,"BT-474 cells; 10 ng/mL HRG, 5 days, Table 26",92%
same,growth inhibition in the presence of EGF,BT-474 cells; 50 ng/mL EGF,40%
same,% Survival +EGF,"BT-474 cells; 50 ng/mL EGF, 5 days, Table 26",56%
same,% Survival Antibody only,"BT-474 cells; 5 days, Table 26",31%
same,% Survival +EGF,BT-474 cells; Table 46,81%
same,% Survival +HRG,BT-474 cells; Table 46,133%
same,% Survival Antibody only,BT-474 cells; Table 46,67%
same,Mean TV % change from Baseline,SKOV3 xenograft [7]; Day 29,+416%
same,PR (>10% baseline regression),SKOV3 xenograft [7]; Day 29,1/11
same,Responders (TV < 50% of control),SKOV3 xenograft [7]; Day 29,5/11
same,ZRD (TV < 20 mm3),SKOV3 xenograft [7]; Day 29,0/11
same,Mean TV (mm3),"SKOV3 xenograft [7]; Day 29, antibodies 3 mg/kg, IgG 10 mg/kg IV twice per week",1001 mm3
same,Time to progression: Tumor doubling time,"SKOV3 xenograft [7]; mouse, in vivo",15 days
same,maximal cell lysis,HCT-116 cells,approximately 25%
same,maximal cell lysis,NCI-N87 cells,approximately 23%
same,% Max Cell Lysis,MCF7 cells [8],27%
same,EC50,MCF7 cells [8],~0.69 nM
